Experiments:
[1] = test system: pathogenic Escherichia coli K88; experiment: microbe, parasite or virus in culture
[2] = Growth performance of broiler chickens, floor pen trial over five weeks (Example 6); type: in vivo; conditions: 10 mg/kg feed
From the text: The objective of the present trial (Trial A) was to evaluate the effects of sucinic acid on the growth performance of broiler chickens in a floor pen trial over five weeks. Succinic acid was supplemented at four different dose levels. […] Each group was placed in one floor pen littered with wood shavings and allocated to one of the different treatments. Each treatment was replicated with 4 groups per sex. Birds had ad libitum access to feed and tap water. […] Chickens received diets based on soybean meal, and wheat as main ingredients (Table 6). […] The target quantities of succinic acid were added on top to the feed, mixed with appropriate amounts of maize starch as a carrier: […] For the statistical evaluation of the data, a one-factorial analysis of variance for each diet (factor: treatment) was carried out. Where significant treatment effects (p<0.05) were indicated, the differences among treatment means were subsequently analyzed with the Newman-Keuls test.

Row | Compound | MIC90 [1] | Feed intake, relative to control (100) ([2]; Day 1-22) | Feed intake, relative to control (100) ([2]; Day 1-36) | Feed intake, relative to control (100) ([2]; Day 22-36)
1 | O=C(O)CC(O)(CC(=O)O)C(=O)O [citric acid, reference compound] | < 31.2 mM | – | – | –
2 | O=C(O)CCC(=O)O [Succinic acid, succinic acid] | < 31.2 mM | – | – | –
3 | COC[C@H]1O[C@@H](OC2OC[C@@H]3O[C@]4(O[C@H]3[C@H]2OC(=O)C(C)C)O[C@H](C)[C@@](O)(C(C)=O)[C@@H]2OCO[C@H]24)[C@@H](OC)[C@@H](O)[C@@H]1O[C@@H]1O[C@H](C)[C@H](OC)[C@H](O[C@H]2C[C@@]3(C)OC4(C[C@@H](O)[C@H](O[C@H]5C[C@@H](O)[C@H](OC(=O)c6c(C)c(Cl)c(O)c(Cl)c6OC)[C@@H](C)O5)[C@@H](C)O4)O[C@@H]3[C@@H](C)O2)[C@H]1O (some centres unmarked) [Avilamycin, reference compound] | – | 105 | 94.3 | 102.5

— patent publication US20110189347A1 (priority 2008, published 2011)
